For this test, the target named is Phosphatidylinositol 4,5-bisphosphate 3-kinase catalytic subunit beta isoform (Homo sapiens, UniProt P42338). The experiment in a line: Inhibition of PI-3K beta (unknown origin).

Amino acid sequences for entries named in this document (tags omitted). A change or cut given only in a name is not applied to a line headed by its entry.
UniProt P42338: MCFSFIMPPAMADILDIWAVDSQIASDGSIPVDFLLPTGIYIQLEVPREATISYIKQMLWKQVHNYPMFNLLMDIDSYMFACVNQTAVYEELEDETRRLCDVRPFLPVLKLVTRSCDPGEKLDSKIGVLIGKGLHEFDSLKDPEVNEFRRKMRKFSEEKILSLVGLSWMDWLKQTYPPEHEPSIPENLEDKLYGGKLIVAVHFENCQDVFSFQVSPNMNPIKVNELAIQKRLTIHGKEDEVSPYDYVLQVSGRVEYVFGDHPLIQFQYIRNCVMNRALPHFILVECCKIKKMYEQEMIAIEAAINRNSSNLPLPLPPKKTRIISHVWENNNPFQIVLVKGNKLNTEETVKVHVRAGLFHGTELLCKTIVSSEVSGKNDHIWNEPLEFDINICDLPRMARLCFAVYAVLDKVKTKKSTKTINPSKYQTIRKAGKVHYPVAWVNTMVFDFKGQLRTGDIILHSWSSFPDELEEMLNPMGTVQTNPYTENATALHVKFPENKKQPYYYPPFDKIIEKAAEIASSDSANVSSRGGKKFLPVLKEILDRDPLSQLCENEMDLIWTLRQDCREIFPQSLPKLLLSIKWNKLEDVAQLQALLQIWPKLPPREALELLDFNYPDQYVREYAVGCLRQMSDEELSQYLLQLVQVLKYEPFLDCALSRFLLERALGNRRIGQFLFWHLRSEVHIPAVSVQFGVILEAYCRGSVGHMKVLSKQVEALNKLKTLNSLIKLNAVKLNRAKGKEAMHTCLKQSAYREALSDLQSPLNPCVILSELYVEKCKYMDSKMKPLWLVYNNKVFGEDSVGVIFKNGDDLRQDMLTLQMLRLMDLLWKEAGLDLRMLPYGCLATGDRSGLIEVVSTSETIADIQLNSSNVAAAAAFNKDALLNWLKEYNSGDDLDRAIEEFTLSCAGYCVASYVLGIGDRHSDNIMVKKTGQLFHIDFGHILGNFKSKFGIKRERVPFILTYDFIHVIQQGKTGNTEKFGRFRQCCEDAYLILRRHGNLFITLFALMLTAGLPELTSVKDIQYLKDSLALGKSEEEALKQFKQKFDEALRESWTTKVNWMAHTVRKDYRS

IC50 data for 1 compound are collected here from ChEMBL document CHEMBL2417539, “1-substituted (Dibenzo[b,d]thiophen-4-yl)-2-morpholino-4H-chromen-4-ones endowed with dual DNA-PK/PI3-K inhibitory activity” (J Med Chem, 2013).

For `O=c1cc(N2CCOCC2)oc2c(-c3ccccc3)cccc12` [LY-294002], it took 270 nM to reach half-maximal inhibition (IC50).

In general, IC50 refers to the concentration that gives 50% inhibition.
